# Data: paper PMC10698194 (Nature Communications, 2023)
# Amino acid sequences for entries named in this document (tags omitted). A change or cut given only in a name is not applied to a line headed by its entry.
# UniProt P33534: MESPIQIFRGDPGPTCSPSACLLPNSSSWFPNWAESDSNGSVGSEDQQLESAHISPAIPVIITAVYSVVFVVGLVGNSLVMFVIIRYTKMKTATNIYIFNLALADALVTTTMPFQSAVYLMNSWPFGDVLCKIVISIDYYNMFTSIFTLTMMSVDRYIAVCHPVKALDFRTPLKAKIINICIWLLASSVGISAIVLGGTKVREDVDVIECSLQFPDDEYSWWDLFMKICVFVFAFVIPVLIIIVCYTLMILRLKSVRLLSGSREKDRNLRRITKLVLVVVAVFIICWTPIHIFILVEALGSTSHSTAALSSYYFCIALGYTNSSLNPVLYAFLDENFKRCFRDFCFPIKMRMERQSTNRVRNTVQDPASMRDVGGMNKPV
# Columns and labels:
# Assay type in all cases: cell-based
# [1] = molecular target: mouse KOR, Gαi1 (Mus musculus, UniProt P33534); assay: TRUPATH BRET G protein assay, Gαi1; conditions: read-out: Emax (%) Gαi1
# [2] = molecular target: T1, mouse KOR, Gαi2 (Mus musculus, UniProt P33534); assay: TRUPATH BRET G protein assay, Gαi2
# T1 construct: expressed in transfected cells; host or cells: HEK293T (ATCC, CRL-3216), transient
# [3] = molecular target: mouse KOR, Gαi3 (Mus musculus, UniProt P33534); assay: TRUPATH BRET G protein assay, Gαi3; conditions: read-out: Emax (%) Gαi3
# [4] = molecular target: mouse KOR, GαoA (Mus musculus, UniProt P33534); assay: TRUPATH BRET G protein assay, GαoA; conditions: read-out: Emax (%) GαoA
# [5] = molecular target: mouse KOR, GαoB (Mus musculus, UniProt P33534); assay: TRUPATH BRET G protein assay, GαoB; conditions: read-out: Emax (%) GαoB
# [6] = molecular target: mouse KOR, Gαz (Mus musculus, UniProt P33534); assay: TRUPATH BRET G protein assay, Gαz; conditions: read-out: Emax (%) Gαz
# [7] = molecular target: mouse KOR, Gαgustducin (Mus musculus, UniProt P33534); assay: TRUPATH BRET G protein assay, Gαgustducin; conditions: read-out: Emax (%) Gαgustducin
smiles,measurement,setting,value
"CC(C)=CCN1CCC2(C)c3cc(O)ccc3CC1C2C (centres unmarked) [Pentazocine, pentazocine]",Emax,[1],58 ± 4%
same,EC50,[2],0.014 µM
same,Emax,[2]; TRUPATH,42 ± 6%
same,Emax,[3],54 ± 3%
same,Emax,[4],35 ± 8%
same,Emax,[5],45 ± 7%
same,Emax,[6],40 ± 2%
same,Emax,[7],79 ± 6%
